This note sets out measurements from PubChem BioAssay AID1511 (Johns Hopkins Ion Channel Center, 2009).

Sequences of proteins named here, by UniProt entry; tags and fusion partners are left off.
UniProt Q12809, whole entry: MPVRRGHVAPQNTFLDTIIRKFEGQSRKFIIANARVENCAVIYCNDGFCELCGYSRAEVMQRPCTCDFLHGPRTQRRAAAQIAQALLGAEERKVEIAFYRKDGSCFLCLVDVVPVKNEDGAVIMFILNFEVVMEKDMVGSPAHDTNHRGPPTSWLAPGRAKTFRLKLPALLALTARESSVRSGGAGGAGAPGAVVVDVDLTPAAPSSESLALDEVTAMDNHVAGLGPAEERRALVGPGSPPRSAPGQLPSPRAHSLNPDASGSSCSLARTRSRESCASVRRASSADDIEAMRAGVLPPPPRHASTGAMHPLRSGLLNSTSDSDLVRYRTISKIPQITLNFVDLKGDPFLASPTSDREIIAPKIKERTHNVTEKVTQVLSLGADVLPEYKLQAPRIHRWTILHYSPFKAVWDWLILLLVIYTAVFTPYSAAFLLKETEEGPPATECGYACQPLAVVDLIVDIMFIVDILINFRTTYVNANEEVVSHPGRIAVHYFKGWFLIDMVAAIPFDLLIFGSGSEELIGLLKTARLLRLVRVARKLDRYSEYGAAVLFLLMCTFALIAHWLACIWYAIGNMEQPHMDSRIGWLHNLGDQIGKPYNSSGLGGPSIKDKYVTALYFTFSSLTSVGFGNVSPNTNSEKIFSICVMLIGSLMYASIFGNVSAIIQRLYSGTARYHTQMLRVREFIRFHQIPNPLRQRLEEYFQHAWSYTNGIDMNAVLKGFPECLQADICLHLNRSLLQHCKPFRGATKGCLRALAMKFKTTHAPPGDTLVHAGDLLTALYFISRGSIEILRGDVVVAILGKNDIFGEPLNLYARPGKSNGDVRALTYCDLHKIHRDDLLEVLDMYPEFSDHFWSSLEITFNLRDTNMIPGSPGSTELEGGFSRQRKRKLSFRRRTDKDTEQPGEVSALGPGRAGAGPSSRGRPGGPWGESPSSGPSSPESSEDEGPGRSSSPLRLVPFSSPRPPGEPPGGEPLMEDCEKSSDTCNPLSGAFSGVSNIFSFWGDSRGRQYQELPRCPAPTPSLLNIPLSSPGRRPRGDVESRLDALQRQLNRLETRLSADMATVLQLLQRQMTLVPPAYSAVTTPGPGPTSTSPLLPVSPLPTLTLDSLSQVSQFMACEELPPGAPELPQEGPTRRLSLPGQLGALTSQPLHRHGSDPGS

This is a selection; strong and weak results do not stand in their true shares. Some structures show a salt or complex split into parts, the way the source records it. Active and inactive are the calls of the source.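 How the source made its calls: active means activation above the mean of controls blocked by dofetilide plus 5 SD; inactive means the rest.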

The assay has as its target Voltage-gated inwardly rectifying potassium channel KCNH2 (Homo sapiens) (UniProt Q12809). Briefly: PubChem AID 1511.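 Further: thallium influx through hERG after potassium depolarization seen as dye fluorescence rise.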 As to conditions: CHO-hERG, FluxOR thallium flux, dofetilide IC70 present; at 10 µM; stronger effect = higher value.
Turning to `CCOC(=O)c1ccc(NP(C)(=O)Oc2ccc(OC)cc2)cc1` (configuration not stated), the activation (rescue from dofetilide block), less the hit threshold was inactive: -5.43%.
On to `O=[N+]([O-])c1cc([N+](=O)[O-])c(O)c([N+](=O)[O-])c1.c1ccc(Oc2ccncc2)cc1`, for which the activation (rescue from dofetilide block), less the hit threshold was inactive: 1.71%.
Next, `CCOP(C)(=S)SCC(=O)NC(C)C(=O)O` (configuration not stated): inactive: -9.12%; `CP(=O)(Nc1ccccn1)Oc1ccc(Cl)cc1` (configuration not stated): inactive: -6.48%; `CP(=O)(Oc1ccccc1)OC(c1ccccc1)C(F)(F)F` (configuration not stated): inactive: -13.1%.
The result for `Cc1cccc(C)c1OP(C)(=O)Nc1ccc(SC(F)(F)F)cc1` (configuration not stated) reads inactive: -6.77%; that for `CP(=O)(Nc1ccc(SC(F)(F)F)cc1)Oc1ccc(Cl)cc1` (configuration not stated), inactive: -8.91%; that for `Cc1cc(C)cc(OP(C)(=O)Nc2ccc(SC(F)(F)F)cc2)c1` (configuration not stated), inactive: -2.22%.
In the case of `CCc1ccc(OP(C)(=O)N2CCN(c3ccc([N+](=O)[O-])cc3)CC2)cc1` (configuration not stated), the activation (rescue from dofetilide block), less the hit threshold is inactive: -10.3%.
Next, `CP(=O)(NC(=O)Nc1ccccc1)Oc1ccccc1` (configuration not stated): inactive: 2.38%.
Next, `CP(=S)(Nn1cnnc1)Oc1ccccc1` (configuration not stated): inactive: -7.12%.
Next, `CP(=O)(Nc1ccccc1Br)Oc1ccccc1` (configuration not stated): inactive: -9.99%.
For `COc1ccccc1OP(C)(=O)Nc1ccccc1` (configuration not stated), the activation (rescue from dofetilide block), less the hit threshold was inactive: -2.37%.
`Cc1ccc(NP(C)(=O)Oc2ccccc2)c(C)c1` (configuration not stated): the activation (rescue from dofetilide block), less the hit threshold was inactive: -8.32%.
Next, `COc1ccccc1OP(C)(=O)Nc1ccc(C)cc1` (configuration not stated): inactive: -2.9%.
Turning to `CCOC(=O)c1ccc(NP(C)(=O)Oc2ccccc2)cc1` (configuration not stated), the activation (rescue from dofetilide block), less the hit threshold was inactive: -6.2%.
Next, `Cc1cc(C)cc(OP(C)(N)=O)c1` (configuration not stated): inactive: -8.72%; `COc1ccc(OP(C)(=O)Nc2cccc(F)c2)cc1` (configuration not stated): inactive: -9.4%; `COc1ccccc1OP(C)(=O)Nc1cc(Cl)ccc1C` (configuration not stated): inactive: -3.67%.
Next, `O=[N+]([O-])c1cc([N+](=O)[O-])c(Nc2cccnc2)c([N+](=O)[O-])c1`: inactive: -13.5%.
Next, `O=[N+]([O-])c1ccc2c(c1)C=Nc1ccccc1O2`: inactive: -11.7%; `Cc1cccc(C)c1OP(C)(N)=O` (configuration not stated): inactive: 1.23%; `CC(C)(C)c1ccc(OP(C)(=O)Nc2ccc(SC(F)(F)F)cc2)cc1` (configuration not stated): inactive: -2.47%.
For the compound `CCN(CC)CCCOC(=O)C(O)(c1ccccc1)c1ccccc1`, the activation (rescue from dofetilide block), less the hit threshold was inactive: -7.98%.
The result for `Cc1ccc(C)c(NP(C)(=O)Oc2ccccc2)c1` (configuration not stated) reads inactive: -4.23%; that for `CP(=O)(Nc1cccc(Br)c1)Oc1ccccc1` (configuration not stated), inactive: -18.4%.
Next, `Cc1cc(C)cc(OP(C)(=O)Nc2ccccn2)c1` (configuration not stated): inactive: -2.32%.
The result for `COc1ccccc1OP(C)(=O)Nc1cccc(Br)c1` (configuration not stated) reads inactive: -8.34%.
`CCOC(=O)c1ccc(NP(C)(=O)Oc2cc(C)cc(C)c2)cc1` (configuration not stated): the activation (rescue from dofetilide block), less the hit threshold was inactive: -5.38%.
`Cc1cc(C)cc(OP(C)(=O)Nc2ccc(C)cc2C)c1` (configuration not stated): the activation (rescue from dofetilide block), less the hit threshold is inactive: -2.32%.
Next, `CC1=NCCc2c1[nH]c1ccccc21.O=[N+]([O-])c1cc([N+](=O)[O-])c(O)c([N+](=O)[O-])c1`: inactive: -7.74%; `O=C(O)c1cccc(Nc2c([N+](=O)[O-])cc([N+](=O)[O-])cc2[N+](=O)[O-])c1`: inactive: -8.11%.
Next, `COc1ccccc1OP(C)(=O)Nc1c(C)cccc1C` (configuration not stated): inactive: -6.9%; `CN1CCCCC1COC(=O)C1(O)c2ccccc2CCc2ccccc21` (configuration not stated): inactive: -7.72%; `CP(=O)(Nc1ccc(SC(F)(F)F)cc1)Oc1ccccc1` (configuration not stated): inactive: -6.2%.
The result for `CCCOc1ccc(NP(C)(=O)Oc2ccc(Cl)cc2)cc1` (configuration not stated) reads inactive: -7.23%; that for `CCOC(=O)C(CC)C1=NC(C)(C)Cc2ccccc21.O=[N+]([O-])c1cc([N+](=O)[O-])c(O)c([N+](=O)[O-])c1` (configuration not stated), inactive: -5.77%; that for `O=[N+]([O-])c1cc([N+](=O)[O-])c(Nc2nnnn2CCO)c([N+](=O)[O-])c1`, inactive: -16%.
For the compound `O=[N+]([O-])c1cc([N+](=O)[O-])c(-c2cnn(-c3ccccc3)c2)c([N+](=O)[O-])c1`, the activation (rescue from dofetilide block), less the hit threshold was inactive: -11.9%.
The result for `O=[N+]([O-])c1cc([N+](=O)[O-])c(-n2nnc3ccccc32)c([N+](=O)[O-])c1` reads inactive: -19%; that for `CP(=O)(Nc1ccc2c(c1)OCCO2)Oc1ccccc1` (configuration not stated), inactive: -6.91%; that for `CP(=O)(Nc1ccc(SC(F)(F)F)cc1)Oc1ccc(F)cc1` (configuration not stated), inactive: -12.8%.
Next, `CCOP(C)(=S)SCC(=O)NC(C)(CC)C(=O)O` (configuration not stated): inactive: -2.22%; `O=[N+]([O-])c1ccc(OP2(=O)COCCO2)cc1` (configuration not stated): inactive: -4.11%; `O=[N+]([O-])c1cc([N+](=O)[O-])c(NCC2CCS(=O)(=O)C2)c([N+](=O)[O-])c1` (configuration not stated): inactive: -8.09%.
The result for `Cc1cc(-c2cccc3ccccc23)c(C)cn1.O=[N+]([O-])c1cc([N+](=O)[O-])c(O)c([N+](=O)[O-])c1` reads inactive: -8.64%; that for `COc1ccc(OP(C)(=O)Nc2cccc(Br)c2)cc1` (configuration not stated), inactive: -11.4%; that for `CN(C)CCOC(=O)C(O)(c1ccccc1)C1CCCCC1` (configuration not stated), inactive: -1.91%.
Turning to `COc1ccc(NP(C)(=O)Oc2ccccc2OC)cc1` (configuration not stated), the activation (rescue from dofetilide block), less the hit threshold was inactive: 0.87%.
Next, `CCN(CC)CCCOC(=O)C(O)(c1ccccc1)C1CCCCC1` (configuration not stated): inactive: -13.2%.
`CP(=O)(Nc1ccccc1)Oc1ccc(F)cc1` (configuration not stated): the activation (rescue from dofetilide block), less the hit threshold is inactive: -7.41%.
The result for `CCCCCOc1ccc(NP(C)(=O)Oc2ccc(Cl)cc2Cl)cc1` (configuration not stated) reads inactive: -10%; that for `O=[N+]([O-])c1cc([N+](=O)[O-])c(OC2CCCCC2O)c([N+](=O)[O-])c1` (configuration not stated), inactive: -6.33%; that for `CCOC(=O)c1ccc(NP(C)(=O)Oc2ccc(F)cc2)cc1` (configuration not stated), inactive: -3.47%.
Next, `COc1ccc(OP(C)(=O)Nc2ccc(SC(F)(F)F)cc2)cc1` (configuration not stated): inactive: -5.34%.
Next, `O=C(OC1CN2CCC1CC2)c1ccc([N+](=O)[O-])cc1` (configuration not stated): inactive: -6.55%; `O=C(OCCN1CCN(CCOCc2ccccc2)CC1)C(O)(c1ccccc1)c1ccccc1`: inactive: -9.24%.
For the compound `COc1ccc2c(c1O)-c1c(O)c(OC)cc3c1[C@H](C2)[N+](C)(C)CC3.O=[N+]([O-])c1cc([N+](=O)[O-])c([O-])c([N+](=O)[O-])c1[O-]`, the activation (rescue from dofetilide block), less the hit threshold is inactive: -12.8%.
Next, `CP(=O)(Nc1ccccc1F)Oc1ccccc1` (configuration not stated): inactive: -7.4%; `CC(C)c1ccc(OP(C)(=O)Nc2ccc(SC(F)(F)F)cc2)cc1` (configuration not stated): inactive: -4.38%; `O=[N+]([O-])c1cc([N+](=O)[O-])c(Nc2ccccn2)c([N+](=O)[O-])c1`: inactive: -15.9%.
Next, `Cc1c(NP(C)(=O)Oc2ccc(C(C)C)cc2)c(=O)n(-c2ccccc2)n1C` (configuration not stated): inactive: -4.1%; `COc1ccccc1OP(C)(=O)Nc1ccc(C)cc1C` (configuration not stated): inactive: -12%.
Next, `CP(=O)(Nc1ccccn1)Oc1ccccc1` (configuration not stated): inactive: -12.2%; `CCc1ccc(OP(C)(=O)O)cc1`: inactive: -6.82%; `COc1ccccc1OP(C)(=O)Nc1ccc(Br)cc1` (configuration not stated): inactive: -12.3%.
Take `COc1ccc(OP(C)(=O)Nc2ccccn2)cc1` (configuration not stated): the activation (rescue from dofetilide block), less the hit threshold is inactive: -10.1%.
The result for `CN(C)CCOC(=O)C(O)(c1ccccc1)C1CCCC1` (configuration not stated) reads inactive: -0.29%; that for `Cc1nc2ccc3ccccc3c2o1.O=[N+]([O-])c1cc([N+](=O)[O-])c(O)c([N+](=O)[O-])c1`, inactive: -17%; that for `CP(=O)(OCCOc1ccccc1)OCCOc1ccccc1`, inactive: -5.38%.
Next, `CP(=O)(Nc1ccc(Cl)cc1Cl)Oc1ccccc1` (configuration not stated): inactive: -7.36%; `Cc1cc(C)cc(OP(C)(=O)Nc2cccc(C(F)(F)F)c2)c1` (configuration not stated): inactive: -6.86%; `COc1ccccc1OP(C)(=O)Nc1ccc(C)c(C)c1` (configuration not stated): inactive: -2.1%.
As to `COc1ccc(OP(C)(=O)Nc2ccccc2Br)cc1` (configuration not stated), the activation (rescue from dofetilide block), less the hit threshold was inactive: -7.42%.
Next, `Nc1ccc2c(ccc3cccnc32)n1.O=[N+]([O-])c1cc([N+](=O)[O-])c(O)c([N+](=O)[O-])c1`: inactive: -1.42%.
The result for `CCOC(=O)c1ccc(NP(C)(=O)Oc2ccc(Cl)cc2)cc1` (configuration not stated) reads inactive: -8.12%; that for `CP(=O)(OC12CC3CC(CC(C3)C1)C2)OC12CC3CC(CC(C3)C1)C2`, inactive: -12.2%; that for `CC(C)(C)c1ccc(OP(C)(=O)O)cc1`, inactive: -4.92%.
Next, `COc1ccccc1OP(C)(=O)Nc1ccccc1Br` (configuration not stated): active: 6.14%; `CP(=O)(Nc1ccc(Cl)cc1)Oc1ccc(F)cc1` (configuration not stated): inactive: -8.29%; `CN(C)C(=O)c1c([N+](=O)[O-])cc([N+](=O)[O-])cc1[N+](=O)[O-]`: inactive: -6.67%.
For the compound `COc1ccc(OP(C)(=O)Nc2ccc(Br)cc2)cc1` (configuration not stated), the activation (rescue from dofetilide block), less the hit threshold was inactive: -1.78%.
The result for `CCN(CC)CC(O)COC(=O)C(O)(c1ccccc1)C1CCCCC1` (configuration not stated) reads inactive: -16.1%; that for `O=C(OCCCN1CCCC1)C(O)(c1ccccc1)C1CCCCC1` (configuration not stated), inactive: -7.47%; that for `COc1ccccc1OP(C)(=O)Nc1c(C)n(C)n(-c2ccccc2)c1=O` (configuration not stated), inactive: -2.24%.
In the case of `CCc1ccc(OP(C)(=O)Nc2cccnc2)cc1` (configuration not stated), the activation (rescue from dofetilide block), less the hit threshold is inactive: -0.56%.
The result for `CP(=O)(Oc1ccccc1)N1CCOC1=O` (configuration not stated) reads inactive: -4.14%.
